Assay [1] has as its system IL-23-stimulated Kit225 T cells with STAT-dependent luciferase reporter. The experiment in a line: Kit225 T cell assay, IL-23 stimulated STAT-dependent luciferase reporter. It is filed as cell-based. The note with it: read-out: IL-23 Kit225 Reporter, LE (IC50), 20 ng/mL human recombinant IL-23, 5-6 hours. On the technique in general: A reporter such as luciferase makes a cellular process visible.

Protein sequences, listed by entry. Tags and fused reporters are not part of them. Chains listed by the source or under a name are the forms on record and can include a tag or linker. Residues count along the entry.
UniProt P29597, 575-869 with tags or gaps: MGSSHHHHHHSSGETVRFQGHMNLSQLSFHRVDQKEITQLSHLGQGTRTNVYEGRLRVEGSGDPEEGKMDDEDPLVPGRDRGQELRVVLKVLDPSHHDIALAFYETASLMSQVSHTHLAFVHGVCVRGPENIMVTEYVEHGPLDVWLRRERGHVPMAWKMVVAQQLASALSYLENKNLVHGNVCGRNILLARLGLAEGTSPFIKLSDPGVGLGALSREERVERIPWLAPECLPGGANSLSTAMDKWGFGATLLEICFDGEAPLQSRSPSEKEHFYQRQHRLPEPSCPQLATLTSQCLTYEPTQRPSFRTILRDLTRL

Assay [2] addresses recombinantly expressed His-tagged protein corresponding to amino acids 575-869 of human Tyk2 (Homo sapiens, UniProt P29597). In words: Probe displacement assay (scintillation proximity, radiolabeled probe). Type of assay: binding. As to conditions: read-out: Probe Displacement EC50; 2.5 nM Tyk2 (575-869), 40 nM [3H] probe, 30 minutes at room temperature. For orientation: In a scintillation proximity assay essentially only radioactivity close to the scintillant gives light.

The test system of assay [3] is IFNα-stimulated Kit225 T cells with STAT-dependent luciferase reporter. In words: Kit225 T cell assay, IFNα stimulated STAT-dependent luciferase reporter. Type of assay: cell-based. The note with it: read-out: IFNa Kit225 Reporter, LE (IC50), 200 U/mL human recombinant IFNα, 5-6 hours.

By EC50 is commonly meant the midpoint of the concentration-response curve. As for `CNc1cc(Nc2ccoc2C(=O)NCCOC)nn2c(C(=O)NC3CC3)cnc12`, the figures for the IC50 in assay [1] and in assay [3] were 50 nM and 100 nM, respectively. In addition, the EC50 in assay [2] is 2.73 nM.

The values above are taken from patent publication US10836770B2, “Imidazopyridazine compounds useful as modulators of IL-12, IL-23 and/or INF alpha responses” (priority 2016, dated 2020).
